Recovery data for one compound are collected here from patent US20190134000A1, “COMPOUNDS TO PROMOTE NORMAL PROCESSING OF APP” (Buck Institute for Research on Aging, priority 2016, published 2019).

The data set in a line: in vitro. Conditions: human. Here is the method: The second batch of C41 was tested for plasma protein binding, ADME-tox screening (microsomal intrinsic clearance), and ADME-tox screening (CYP inhibition screen). PK in rats was determined to determine a dose of non-GLP Pharm-Tox screening. Additionally, acute toxicity in rats (pre-subchronic toxicity) and non-GLP subchronic toxicity was determined.

As for `CC(C)NCC(O)COc1cccc2ccccc12` (stereo not shown) [propranolol, reference compound], the recovery stood at 96%.
